Results from US10221173B2, “Chemical compounds” (AstraZeneca AB, priority 2017, dated 2019).
pIC50: −log10 of the molar value.

Sequences of proteins named here, by UniProt entry; tags and fusion partners are left off. A change or cut given only in a name is not applied to a line headed by its entry. Residues count along the entry.
UniProt Q12809: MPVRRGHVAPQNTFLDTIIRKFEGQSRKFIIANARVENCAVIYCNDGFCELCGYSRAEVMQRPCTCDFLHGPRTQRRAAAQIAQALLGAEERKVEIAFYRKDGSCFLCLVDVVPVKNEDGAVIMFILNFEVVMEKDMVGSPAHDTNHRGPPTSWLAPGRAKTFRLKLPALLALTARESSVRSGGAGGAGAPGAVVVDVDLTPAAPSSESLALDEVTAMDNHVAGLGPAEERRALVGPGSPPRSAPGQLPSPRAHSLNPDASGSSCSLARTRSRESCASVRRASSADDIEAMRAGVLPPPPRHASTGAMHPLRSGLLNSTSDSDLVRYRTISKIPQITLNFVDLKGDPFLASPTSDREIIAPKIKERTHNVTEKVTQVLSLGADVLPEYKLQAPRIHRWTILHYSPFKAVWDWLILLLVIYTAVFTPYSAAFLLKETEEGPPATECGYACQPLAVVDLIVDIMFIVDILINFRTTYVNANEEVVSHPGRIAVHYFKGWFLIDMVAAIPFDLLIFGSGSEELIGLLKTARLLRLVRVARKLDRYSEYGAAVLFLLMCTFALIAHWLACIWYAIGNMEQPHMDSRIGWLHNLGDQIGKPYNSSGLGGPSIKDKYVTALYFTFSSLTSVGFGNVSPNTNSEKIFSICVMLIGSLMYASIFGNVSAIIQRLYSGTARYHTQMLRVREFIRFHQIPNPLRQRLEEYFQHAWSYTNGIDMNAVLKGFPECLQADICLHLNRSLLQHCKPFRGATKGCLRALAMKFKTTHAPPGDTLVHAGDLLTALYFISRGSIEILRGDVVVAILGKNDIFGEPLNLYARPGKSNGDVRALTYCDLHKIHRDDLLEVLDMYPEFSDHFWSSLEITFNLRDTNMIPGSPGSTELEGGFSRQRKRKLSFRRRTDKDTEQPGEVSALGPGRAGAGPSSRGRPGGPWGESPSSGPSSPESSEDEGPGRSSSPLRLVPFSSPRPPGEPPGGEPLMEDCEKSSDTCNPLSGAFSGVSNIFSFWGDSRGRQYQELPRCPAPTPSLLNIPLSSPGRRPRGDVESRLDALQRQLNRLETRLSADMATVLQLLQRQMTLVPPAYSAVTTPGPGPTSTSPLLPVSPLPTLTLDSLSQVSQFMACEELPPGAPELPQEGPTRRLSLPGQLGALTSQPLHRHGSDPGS
UniProt P03372, whole entry: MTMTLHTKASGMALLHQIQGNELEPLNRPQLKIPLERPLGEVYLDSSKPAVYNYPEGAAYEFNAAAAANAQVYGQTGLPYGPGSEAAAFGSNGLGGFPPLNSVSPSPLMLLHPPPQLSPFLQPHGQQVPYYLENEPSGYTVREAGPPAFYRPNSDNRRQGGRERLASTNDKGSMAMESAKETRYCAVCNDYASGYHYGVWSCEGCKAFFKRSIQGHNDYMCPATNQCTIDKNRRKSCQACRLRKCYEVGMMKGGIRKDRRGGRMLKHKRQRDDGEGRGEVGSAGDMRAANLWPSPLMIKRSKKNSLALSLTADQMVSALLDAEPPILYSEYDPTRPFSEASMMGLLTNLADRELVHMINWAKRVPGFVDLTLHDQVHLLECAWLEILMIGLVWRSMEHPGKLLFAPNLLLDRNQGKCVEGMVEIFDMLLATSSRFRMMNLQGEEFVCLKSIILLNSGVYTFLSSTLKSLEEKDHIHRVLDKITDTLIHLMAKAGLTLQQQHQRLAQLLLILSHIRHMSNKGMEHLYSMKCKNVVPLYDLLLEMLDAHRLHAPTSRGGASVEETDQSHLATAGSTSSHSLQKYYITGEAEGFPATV
UniProt P03372, 307-554: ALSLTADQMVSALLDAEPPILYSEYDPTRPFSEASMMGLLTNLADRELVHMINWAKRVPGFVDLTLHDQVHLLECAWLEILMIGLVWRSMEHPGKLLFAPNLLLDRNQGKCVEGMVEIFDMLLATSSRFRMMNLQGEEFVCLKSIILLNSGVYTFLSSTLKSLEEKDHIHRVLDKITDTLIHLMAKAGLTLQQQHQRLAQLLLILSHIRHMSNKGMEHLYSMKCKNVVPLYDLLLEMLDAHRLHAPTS

Tests used:
physchem = conditions: 1-octanol/aqueous buffer, pH 7.4, LogD pH 7.4, pH 7.4
hERG potassium channel = hERG potassium channel (Homo sapiens (Human), UniProt Q12809)
[1] = biological target: T1, Estrogen Receptor (ERα) in MCF-7 cells (Homo sapiens (Human), UniProt P03372); assay: MCF-7 ER down-regulation assay (immuno-fluorescence); type: cell-based
[2] = biological target: recombinant human Estrogen Receptor alpha ligand binding domain (ER alpha-LBD (GST)) (Homo sapiens (Human), UniProt P03372); assay: ERα binding assay (LanthaScreen TR-FRET competition)
[3] = biological target: estrogen receptor (ERα) in CAMA-1 cells (Homo sapiens (Human), UniProt P03372); assay: Western blotting assay, ER down-regulation in CAMA-1; type: cell-based; conditions: CAMA-1, 100 nM compound, 48 h, vs 100 nM fulvestrant
[4] = biological target: T1, Estrogen Receptor (ERα) in MCF-7 cells; assay: Western blotting assay, ER down-regulation in MCF-7; type: cell-based; conditions: MCF-7, 100 nM compound, 48 h, vs 100 nM fulvestrant

Structure (SMILES)	logD (physchem)	pIC50 (hERG potassium channel)	further results
Cc1ccc(OCCNCCCF)c(F)c1[C@@H]1c2[nH]c3ccccc3c2C[C@@H](C)N1CC(F)(F)F [Example 80, 3-fluoro-N-(2-(2-fluoro-4-methyl-3-((1R,3R)-3-methyl-2-(2,2,2-trifluoroethyl)-2,3,4,9-tetrahydro-1H-pyrido[3,4-b]indol-1-yl)phenoxy)ethyl)propan-1-amine]	4.5		
C[C@@H]1Cc2c([nH]c3ccccc23)[C@@H](c2cccc(NCCNCCCF)c2)N1CC1(F)COC1 [Example 2, N-1-(3-((1R,3R)-2-((3-fluorooxetan-3-yl)methyl)-3-methyl-2,3,4,9-tetrahydro-1H-pyrido[3,4-b]indol-1-yl)phenyl)-N-2-(3-fluoropropyl)ethane-1,2-diamine]	3.1		
COc1ccc(OCCNCCCF)cc1[C@@H]1c2[nH]c3ccccc3c2C[C@@H](C)N1CC(F)F [Example 6, N-(2-(3-((1R,3R)-2-(2,2-difluoroethyl)-3-methyl-2,3,4,9-tetrahydro-1H-pyrido[3,4-b]indol-1-yl)-4-methoxyphenoxy)ethyl)-3-fluoropropan-1-amine]	3.2	5.27	
C[C@@H]1Cc2c([nH]c3ccccc23)[C@@H](c2cc(F)cc(OCCNCCCF)c2)N1CC(F)(F)F [Example 73, 3-fluoro-N-(2-(3-fluoro-5-((1R,3R)-3-methyl-2-(2,2,2-trifluoroethyl)-2,3,4,9-tetrahydro-1H-pyrido[3,4-b]indol-1-yl)phenoxy)ethyl)propan-1-amine]	4.4	5.17	
C[C@@H]1Cc2c([nH]c3ccccc23)[C@@H](c2cccc(OCCNCCCF)c2)N1CC(F)(F)F [Example 16, 3-fluoro-N-(2-(3-((1R,3R)-3-methyl-2-(2,2,2-trifluoroethyl)-2,3,4,9-tetrahydro-1H-pyrido[3,4-b]indol-1-yl)phenoxy)ethyl)propan-1-amine]	4.1		
C[C@@H]1Cc2c([nH]c3ccccc23)[C@@H](c2ccc(F)c(OCCNCCCF)c2)N1CC(F)(F)F [Example 74, 3-fluoro-N-(2-(2-fluoro-5-((1R,3R)-3-methyl-2-(2,2,2-trifluoroethyl)-2,3,4,9-tetrahydro-1H-pyrido[3,4-b]indol-1-yl)phenoxy)ethyl)propan-1-amine]	4.1	4.92	
COc1ccc(OCCNCCCF)cc1[C@@H]1c2[nH]c3ccccc3c2C[C@@H](C)N1CC1(F)COC1 [Example 4, 3-Fluoro-N-(2-(3-((1R,3R)-2-((3-fluorooxetan-3-yl)methyl)-3-methyl-2,3,4,9-tetrahydro-1H-pyrido[3,4-b]indol-1-yl)-4-methoxyphenoxy)ethyl)propan-1-amine]	2.5		
Cc1ccc(OCCNCCCF)cc1[C@@H]1c2[nH]c3ccccc3c2C[C@@H](C)N1CC(F)(F)F [Example 17, 3-fluoro-N-(2-(4-methyl-3-((1R,3R)-3-methyl-2-(2,2,2-trifluoroethyl)-2,3,4,9-tetrahydro-1H-pyrido[3,4-b]indol-1-yl)phenoxy)ethyl)propan-1-amine]		5.39	
Cc1cc(OCCNCCCF)cc([C@@H]2c3[nH]c4ccccc4c3C[C@@H](C)N2CC(F)(F)F)c1 [Example 18, 3-fluoro-N-(2-(3-methyl-5-((1R,3R)-3-methyl-2-(2,2,2-trifluoroethyl)-2,3,4,9-tetrahydro-1H-pyrido[3,4-b]indol-1-yl)phenoxy)ethyl)propan-1-amine]	4.5	5.35	
Cc1ccc([C@@H]2c3[nH]c4ccccc4c3C[C@@H](C)N2CC(F)(F)F)cc1OCCNCCCF [Example 19, 3-fluoro-N-(2-(2-methyl-5-((1R,3R)-3-methyl-2-(2,2,2-trifluoroethyl)-2,3,4,9-tetrahydro-1H-pyrido[3,4-b]indol-1-yl)phenoxy)ethyl)propan-1-amine]	4.6		
Cc1c(OCCNCCCF)cccc1[C@@H]1c2[nH]c3ccccc3c2C[C@@H](C)N1CC(F)(F)F [Example 20, 3-fluoro-N-(2-(2-methyl-3-((1R,3R)-3-methyl-2-(2,2,2-trifluoroethyl)-2,3,4,9-tetrahydro-1H-pyrido[3,4-b]indol-1-yl)phenoxy)ethyl)propan-1-amine]	4.6	5.42	pIC50 [1]: 9.54; pIC50 [2]: 9.00
Cc1c(OCCNCCCF)ccc(F)c1[C@@H]1c2[nH]c3ccccc3c2C[C@@H](C)N1CC(F)(F)CO [Example 45, 2,2-difluoro-3-((1R,3R)-1-(6-fluoro-3-(2-((3-fluoropropyl)amino)ethoxy)-2-methylphenyl)-3-methyl-1,3,4,9-tetrahydro-2H-pyrido[3,4-b]indol-2-yl)propan-1-ol]	3.3	5.82	CAMA1 Western % ER deg vs Fv [3]: 93%; MCF7 Western % ER deg vs Fv [4]: 89%
COc1ccc(OCCNCCCF)cc1[C@@H]1c2[nH]c3ccccc3c2C[C@@H](C)N1CC(F)(F)CO [Example 8, 2,2-Difluoro-3-((1R,3R)-1-(5-(2-((3-fluoropropyl)amino)ethoxy)-2-methoxyphenyl)-3-methyl-1,3,4,9-tetrahydro-2H-pyrido[3,4-b]indol-2-yl)propan-1-ol]	2.6	5.34	
Cc1c(OCCNCCCF)ccc(F)c1[C@@H]1c2[nH]c3ccccc3c2C[C@@H](C)N1C[C@@H](C)C(=O)O [Example 117, (R)-3-((1R,3R)-1-(6-fluoro-3-(2-((3-fluoropropyl)amino)ethoxy)-2-methylphenyl)-3-methyl-1,3,4,9-tetrahydro-2H-pyrido[3,4-b]indol-2-yl)-2-methylpropanoic acid]			CAMA1 Western % ER deg vs Fv [3]: 92%; MCF7 Western % ER deg vs Fv [4]: 96%
Cc1c(OCCNCCC(F)F)ccc(F)c1[C@@H]1c2[nH]c3ccc(F)cc3c2C[C@@H](C)N1C[C@@H](C)C(=O)O [Example 162, (R)-3-((1R,3R)-1-(3-(2-((3,3-difluoropropyl)amino)ethoxy)-6-fluoro-2-methylphenyl)-6-fluoro-3-methyl-1,3,4,9-tetrahydro-2H-pyrido[3,4-b]indol-2-yl)-2-methylpropanoic acid]			pIC50 [2]: 8.85
C[C@@H]1Cc2c([nH]c3ccccc23)[C@@H](c2cccc(OCCNCCCF)c2F)N1CC(F)(F)F [Example 24, 3-fluoro-N-(2-(2-fluoro-3-((1R,3R)-3-methyl-2-(2,2,2-trifluoroethyl)-2,3,4,9-tetrahydro-1H-pyrido[3,4-b]indol-1-yl)phenoxy)ethyl)propan-1-amine]	3.7	5.15	
Cc1c(OCCNCCCF)ccc(F)c1[C@@H]1c2[nH]c3ccccc3c2C[C@@H](C)N1CC(F)(F)F [Example 33, 3-fluoro-N-(2-(4-fluoro-2-methyl-3-((1R,3R)-3-methyl-2-(2,2,2-trifluoroethyl)-2,3,4,9-tetrahydro-1H-pyrido[3,4-b]indol-1-yl)phenoxy)ethyl)propan-1-amine]	4.5	5.28	
